Measurements from PubChem BioAssay AID435005 (Broad Institute, 2010).
The entries are a selection whose mix differs from that of the whole data set. Some structures show a salt or complex split into parts, the way the source records it. The source made the active and inactive calls.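 Rule for the calls: active = Every replicate reaches about 75%, or at least half do and their mean reaches it too (limit read from the data); inconclusive = At least half of replicates reach the limit but their mean does not; inactive = Under half of replicates reach the limit.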

Assay: inhibitors of cytokine-induced beta cell apoptosis, primary screen, luminescence (AID 435005);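 note: 0% = cytokine-treated negative control wells and 100% = positive control rescue; higher means more ATP so stronger rescue from cytokine killing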
Settings: INS-1E cytokine-induced death, ATP luminescence, 48 h; stronger effect = higher value; percent of positive-control rescue, neutral wells zero; concentration not given here

| SMILES | protection from apoptosis |
| --- | --- |
| O=[N+]([O-])c1cc([N+](=O)[O-])c(Nc2nnnn2CCO)c([N+](=O)[O-])c1 | inactive: -9.61% |
| CCOC(=O)C(CC)C1=NC(C)(C)Cc2ccccc21.O=[N+]([O-])c1cc([N+](=O)[O-])c(O)c([N+](=O)[O-])c1 (configuration not stated) | inactive: -7.69% |
| COc1ccccc1CNC(=O)COC(=O)C(O)(c1ccccc1)c1ccccc1 | inactive: 3.23% |
| O=[N+]([O-])c1cc([N+](=O)[O-])c(-c2cnn(-c3ccccc3)c2)c([N+](=O)[O-])c1 | active: 100% |
| O=[As](O)(c1ccccc1Br)c1ccccc1Br | inactive: -4.81% |
| CC1(CBr)Cn2c(nc3ccccc3c2=O)S1 (configuration not stated) | inactive: -20.6% |
| Cc1nc2ccc3ccccc3c2s1.O=[N+]([O-])c1cc([N+](=O)[O-])c(O)c([N+](=O)[O-])c1 | inactive: -3.74% |
| CN(C(=O)Cc1ccc(Cl)c(Cl)c1)[C@@H]1CCCC[C@H]1N1CCCC1 | inactive: -8.38% |
| CCOP(=O)(Nc1ccc(C)cn1)OCC | inactive: 0.177% |
| CCC1=CC2Cc3nc4ccc(Cl)cc4c(N)c3C(C1)C2 (configuration not stated) | inactive: 14% |
| O=[N+]([O-])c1cc([N+](=O)[O-])c(-n2nnc3ccccc32)c([N+](=O)[O-])c1 | inactive: -10.4% |
| Clc1n[nH]nc1-c1nn[nH][15n]1 | inactive: 1.63% |
| CC(C)(C)C(=O)NC(Sc1ncccn1)C(Cl)(Cl)Cl (configuration not stated) | inactive: -2.2% |
| CP(=O)(Nc1ccc2c(c1)OCCO2)Oc1ccccc1 (configuration not stated) | inactive: -2.1% |
| Cc1ccccc1NP(C)(=O)Nc1ccccc1C | inactive: -4.91% |
| CP(=O)(Nc1ccc(SC(F)(F)F)cc1)Oc1ccc(F)cc1 (configuration not stated) | inactive: -7.32% |
| O=P(Nc1nccs1)(c1ccccc1)c1ccccc1 | inactive: -2.83% |
| CC(C)C(=O)NC(Sc1ccccc1)C(Cl)(Cl)Cl (configuration not stated) | inactive: -12.3% |
| CCOP(C)(=S)SCC(=O)NC(C)(CC)C(=O)O (configuration not stated) | inactive: 0.397% |
| c1nnnn1CCn1cnnn1 | inactive: -5.66% |
| O=[N+]([O-])c1ccc(OP2(=O)COCCO2)cc1 (configuration not stated) | inactive: 3.55% |
| CC(=O)NC(SC(=S)N(C)C)C(Cl)(Cl)Cl (configuration not stated) | inactive: 2.27% |
| O=[N+]([O-])c1ncn(CCn2cnc([N+](=O)[O-])n2)n1 | inactive: -5.9% |
| O=[As](O)(c1ccccc1)c1ccc(O)cc1 | inactive: -2.23% |
| O=[N+]([O-])c1cc([N+](=O)[O-])c(NCC2CCS(=O)(=O)C2)c([N+](=O)[O-])c1 (configuration not stated) | inactive: -0.145% |

| SMILES | protection from apoptosis |
| --- | --- |
| C(Cc1nn[nH]n1)Cc1nn[nH]n1 | inactive: -2.84% |
| Nc1ccc([As](=O)(O)c2ccc([N+](=O)[O-])cc2)cc1 | inactive: 1.7% |
| O=C(OC1CN2CCC1CC2)c1cccc(Cl)c1 (configuration not stated) | inactive: -5.33% |
| COc1ccc(OP(C)(=O)Nc2cccc(Br)c2)cc1 (configuration not stated) | inactive: -0.396% |
| CN(C)C1(CNC(=O)c2ccc(Cl)c(S(N)(=O)=O)c2)CCCCC1 | inactive: -5.14% |
| O=P(Nc1ccccn1)(c1ccc(Br)cc1)c1ccc(Br)cc1 | inactive: -2.92% |
| O=P(Nc1nc2ccccc2s1)(c1ccccc1)c1ccccc1 | inactive: -3.65% |
| CN(C)CCOC(=O)C(O)(c1ccccc1)C1CCCCC1 (configuration not stated) | inactive: -5.72% |
| C[C@H]1OP(=O)(Oc2ccccc2)[C@H](O)[C@H](O)[C@H]1N=[N+]=[N-] (some centres not stated) | inactive: 0.522% |
| COC(=O)c1cc2c(s1)N=C(c1ccccc1)N(C)P2(=O)N1CCOCC1 (configuration not stated) | inactive: -4.89% |
| CC(=O)NC(SC(=S)N(CC(C)C)CC(C)C)C(Cl)(Cl)Cl (configuration not stated) | inactive: 34.5% |
| Cc1ccc(OP(=O)(Nc2ccccn2)Oc2ccc(C)cc2)cc1 | inactive: 3.2% |
| O=C(OC1CN2CCC1CC2)c1ccccc1 (configuration not stated) | inactive: -1.45% |
| CCC(=O)N1C2C3N(C(=O)CC)C1C1N(C(=O)CC)C(C(N1C(=O)CC)N3C(=O)CC)N2C(=O)CC | inactive: 1.07% |
| CCN(CC)CCCOC(=O)C(O)(c1ccccc1)C1CCCCC1 (configuration not stated) | inactive: 1.22% |
| CP(=O)(Nc1ccccc1)Oc1ccc(F)cc1 (configuration not stated) | inactive: -1.18% |
| CC(NC(=O)COC(=O)C(O)(c1ccccc1)c1ccccc1)c1ccccc1 (configuration not stated) | inactive: -2.78% |
| Cc1ccccc1OP(=O)(Nc1ccccn1)Oc1ccccc1C | inactive: 4.74% |
| O=[N+]([O-])c1cc([N+](=O)[O-])c(OC2CCCCC2O)c([N+](=O)[O-])c1 (configuration not stated) | inactive: 6.85% |
| CCCCCOc1ccc(NP(C)(=O)Oc2ccc(Cl)cc2Cl)cc1 (configuration not stated) | inactive: -3.99% |
| CN(C)C(=O)Oc1noc2ccccc12 | inactive: -6.3% |
| O=C(NC1CCS(=O)(=O)C1)NP(=S)(Oc1ccccc1)Oc1ccccc1 (configuration not stated) | inactive: -0.394% |
| CCNC(=S)/N=C(\N)N[N+](=O)[O-] | inactive: -5.49% |
| c1ccc(-c2nn[nH]n2)c(-c2nn[nH]n2)c1 | inactive: -5.6% |
| CCOC(=O)NC(Sc1ccccc1)C(Cl)(Cl)Cl (configuration not stated) | inactive: -19.1% |

| SMILES | protection from apoptosis |
| --- | --- |
| CCOC(=O)c1ccc(NP(C)(=O)Oc2ccc(F)cc2)cc1 (configuration not stated) | inactive: -11.1% |
| COc1ccc(OP(C)(=O)Nc2ccc(SC(F)(F)F)cc2)cc1 (configuration not stated) | inactive: -3.43% |
| CC(=O)c1ccc(N2CC2c2ccncc2)cc1 (configuration not stated) | inactive: 0.749% |
| C[C@H]1OP(=O)(Oc2ccccc2)C[C@@H]2O[C@@H]21 (some centres not stated) | inactive: 1.66% |
| C[C@@H]1C=CCP(=O)(Oc2ccccc2)O1 (some centres not stated) | inactive: -6.8% |
| CC(=O)Nc1ccc([As](=O)(O)O)c(O)c1 | inactive: 4.25% |
| COc1ccc2c(c1O)-c1c(O)c(OC)cc3c1[C@H](C2)[N+](C)(C)CC3.O=[N+]([O-])c1cc([N+](=O)[O-])c([O-])c([N+](=O)[O-])c1[O-] | inactive: -7.1% |
| CC(=O)Nc1ccc(Oc2c([N+](=O)[O-])cc([N+](=O)[O-])cc2[N+](=O)[O-])cc1 | inactive: -5.81% |
| O=P1(Nc2nc3ccc(Cl)cc3s2)COc2ccccc2O1 (configuration not stated) | inactive: -7.52% |
| CP(=O)(Nc1ccccc1F)Oc1ccccc1 (configuration not stated) | inactive: -7.15% |
| CC(C)(C)C(=O)NC(Sc1ccccc1)C(Cl)(Cl)Cl (configuration not stated) | inactive: -5.41% |
| CC(C)c1ccc(OP(C)(=O)Nc2ccc(SC(F)(F)F)cc2)cc1 (configuration not stated) | inactive: -5.67% |
| Nc1cc(N)c2nonc2c1[N+](=O)[O-] | inactive: -3.92% |
| Cc1c(NP(C)(=O)Oc2ccc(C(C)C)cc2)c(=O)n(-c2ccccc2)n1C (configuration not stated) | inactive: 1.2% |
| O=[N+]([O-])c1cc([N+](=O)[O-])c(Nc2ccccn2)c([N+](=O)[O-])c1 | active: 80.1% |
| CC(C)CC(=O)NC(Sc1ccc(Cl)cc1)C(Cl)(Cl)Cl (configuration not stated) | inactive: -8.89% |
| Oc1ccccc1CNc1ccccn1 | inactive: -2.19% |
| O=C(NC(Sc1ccncn1)C(Cl)(Cl)Cl)c1ccccc1 (configuration not stated) | inactive: 0.163% |
| Cc1c2non([O-])c-2c(C)[n+](=O)[n+]1[O-] | inactive: -2.77% |
| CP(=O)(Nc1ccccn1)Oc1ccccc1 (configuration not stated) | inactive: -8.11% |
| COc1ccccc1OP(C)(=O)Nc1ccc(C)cc1C (configuration not stated) | inactive: -4.05% |
| CCc1ccc(OP(C)(=O)O)cc1 | inactive: -1.45% |
| NC(=O)c1cc([N+](=O)[O-])cc([N+](=O)[O-])c1N | inactive: -3.48% |
| CN(C(=O)Cc1ccc(Cl)c(Cl)c1)[C@H]1CCCC[C@H]1N1CCCC1 | inactive: -1.23% |
| COc1ccccc1OP(C)(=O)Nc1ccc(Br)cc1 (configuration not stated) | inactive: -11.8% |

| SMILES | protection from apoptosis |
| --- | --- |
| Cc1ccc(N/C(=N/P(=O)(N2CCOCC2)N2CCOCC2)N2CCOCC2)cc1 | inactive: -1.18% |
| COc1ccccc1OP(=O)(Nc1ccc(C)cn1)Oc1ccccc1OC | inactive: -6.05% |
| COc1ccc(OP(C)(=O)Nc2ccccn2)cc1 (configuration not stated) | inactive: -13.8% |
| CN1CCCC(OC(=O)C(c2ccccc2)c2ccccc2)C1 (configuration not stated) | inactive: 1.93% |
| Clc1ccc(Cl)c(NC2=NCC(CBr)S2)c1 (configuration not stated) | inactive: -2.63% |
| Cc1nc2ccc3ccccc3c2o1.O=[N+]([O-])c1cc([N+](=O)[O-])c(O)c([N+](=O)[O-])c1 | inactive: -10.6% |
| O=[N+]([O-])c1cc([N+](=O)[O-])c(CCN2CCOCC2)c([N+](=O)[O-])c1 | inactive: 7.85% |
| CCN(N=Nc1nonc1N)c1nonc1N | inactive: -3.15% |
| Nc1cccc2ccc([As](=O)(O)O)cc12 | inactive: -2.78% |
| CP(=O)(Nc1ccc(Cl)cc1Cl)Oc1ccccc1 (configuration not stated) | inactive: -3.74% |
| CP(=O)(OCCOc1ccccc1)OCCOc1ccccc1 | inactive: -9.33% |
| CC(=O)Nc1ccc([As](=O)(O)O)cc1 | inactive: -3.56% |
| O=C(O)c1ccccc1[As](=O)(O)O | inactive: -0.00228% |
| O=P(Nc1nc2ccc(Cl)cc2s1)(c1ccccc1)c1ccccc1 | inactive: 25.1% |
| Cc1cc(C)cc(OP(C)(=O)Nc2cccc(C(F)(F)F)c2)c1 (configuration not stated) | inactive: -3.13% |
| Cc1cc(SC(NC(=O)c2ccc(F)cc2)C(Cl)(Cl)Cl)ncn1 (configuration not stated) | inactive: -6.97% |
| CCOP(=O)(Nc1ccccc1)OCC | inactive: -9.24% |
| COc1ccccc1OP(C)(=O)Nc1ccc(C)c(C)c1 (configuration not stated) | inactive: -8.03% |
| CN(C(=O)Cc1ccc(Cl)c(Cl)c1)[C@H]1CCCC[C@@H]1N1CCCC1 | inactive: -2.57% |
| Cc1ccc(NP(=O)(Oc2ccccc2F)Oc2ccccc2F)nc1 | inactive: -6.02% |
| COc1ccc(OP(C)(=O)Nc2ccccc2Br)cc1 (configuration not stated) | inactive: -6.08% |
| CC(C)(C)C(=O)NC(Sc1ccncn1)C(Cl)(Cl)Cl (configuration not stated) | inactive: -14.9% |
